## Antibody variant affinities, Ab-14 heavy chain, assay 1

From the AlphaSeq antibody data of Engelhart et al. 2022 (doi:10.1038/s41597-022-01779-4), copy in the FLAb collection.

Target peptide (SARS-CoV-2 spike, HR2 region): PDVDLGDISGINAS

Parent: Ab-14, a human scFv built as VH, a (GGGGS)3 linker, VL. Only the CDRs of the heavy chain vary.
VH: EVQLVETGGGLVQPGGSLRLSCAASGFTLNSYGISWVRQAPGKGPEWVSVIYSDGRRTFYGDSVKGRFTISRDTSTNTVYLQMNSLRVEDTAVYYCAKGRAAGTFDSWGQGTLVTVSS
VL: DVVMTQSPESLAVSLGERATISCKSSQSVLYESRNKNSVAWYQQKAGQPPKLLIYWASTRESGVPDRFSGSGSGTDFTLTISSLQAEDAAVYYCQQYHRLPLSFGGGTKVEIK

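Phage display of a naive human antibody library on the peptide gave the parent. The library (AAYL49) carries one to three amino acid substitutions per variant, with no insertions or deletions. The scFvs were displayed on barcoded MATa yeast, the peptide on MATalpha yeast. After mating in shaken culture at 30 °C for 16 h, diploids were selected and their barcode pairs sequenced. Scores were corrected for input abundance and mapped to Kd with protein pairs of known affinity run in the same pool. Mating was done three times.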

The parent's heavy chain CDRs are GFTLNSYGIS, VIYSDGRRTFYGDSVK, GRAAGTFDS; each variant's own CDRs replace them letter for letter.
Numbers give log10(Kd / nM), so 0 is 1 nM and 3 is 1 µM. Smaller is tighter.
Averages over replicates are reported, and they cover detected replicates only.
A pair that was not seen in any replicate is written "not detected"; this usually means weak binding, but a binder can also be missed.
Nonspecific signal, from three strains lacking the peptide, appeared in 15% of pairings of library AAYL49, centred on 4.06 (5% of these signals below 2.83); values are not corrected for it. For each scFv, signals with the empty controls are counted beside the result.

CDR-H1 | CDR-H2 | CDR-H3 | mean, log10 nM | seen in | signal with controls
GFPLNSYGIS | VIYDDGRPTFYGDSVK | GRAAGTFDS | 2.76 | 1 of 3 | 1 of 9
GFTDNSYGIS | VIYSDGRRTGYGDSVK | WRAAGTFDS | not detected | 0 of 3 | 2 of 9
GFTLNSYQIS | VIYSDGRRHFYGDSPK | GRAAGTFDS | not detected | 0 of 3 | 0 of 9
GFTLNSYGFS | VSYSDGRFTFYGDSVK | GRAAGTFDS | not detected | 0 of 3 | 0 of 9
GFCLNSYGIS | VIYNDGRRTFYGDSVK | GRAAGTLDS | not detected | 0 of 3 | 0 of 9
GFTLNSYGIS | VIYCDGRQTFYGDSVK | GRAAGTIDS | 4.17 | 1 of 3 | 2 of 9
IFTLNSYGIS | KIYSDGRRTFYGDSVK | GRAAFTFDS | 4.69 | 1 of 3 | 3 of 9
GFTDNSYGIS | VIYSDGRRTFYGDSVK | GRNAGTFDS | not detected | 0 of 3 | 0 of 9
GFVLNSYGIS | VINSDGRRTFYGDSDK | GRAAGTFDS | not detected | 0 of 3 | 2 of 9
GFTDNSYGIS | AIFSDGRRTFYGDSVK | GRAAGTFDS | not detected | 0 of 3 | 2 of 9
GFTLNSYVIS | VIYSDRRRTFYGDSYK | GRAAGTFDS | 3.92 | 1 of 3 | 3 of 9
GFTLNSYGIS | VIYSNGRRTFYGDSVH | GRAAGTPDS | 4.08 | 1 of 3 | 1 of 9
GFTLNSQGIS | VICSDGRRTFYGDSVK | GRAFGTFDS | not detected | 0 of 3 | 1 of 9
GFTLNSYGIS | VEYRDGRRTFYGDVVK | GRAAGTFDS | not detected | 0 of 3 | 0 of 9
GFTLNCYGIS | EIYSDGRRTFYGDSVK | GHAAGTFDS | 3.69 | 1 of 3 | 3 of 9
GFTLNSYGIS | VIYSDGRRTFYHDSVK | GRACSTFDS | not detected | 0 of 3 | 3 of 9
GFTLNSYGIS | VIYSDGWRTFYSDSVK | GRAAGTFES | 0.63 | 3 of 3 | 1 of 9
GFTLNSYGIS | VIYSDGRRTFYGFSVM | GRAAGRFDS | not detected | 0 of 3 | 1 of 9
VFTLNSKGIS | VIYSDGRRTFYGDYVK | GRAAGTFDS | not detected | 0 of 3 | 2 of 9
GFTLISYGIS | VIYSDGRRTFEGDSVK | GRTAGTFDS | not detected | 0 of 3 | 0 of 9
GFTLNSKGIS | VIYSQHRRTFYGDSVK | GRAAGTFDS | not detected | 0 of 3 | 4 of 9
GFTLNSYGIS | VIYSDGRRTQLGDSVK | GAAAGTFDS | not detected | 0 of 3 | 0 of 9
GFTLNSYGFS | PIYSDGRRTFYGWSVK | GRAAGTFDS | 5.12 | 1 of 3 | 6 of 9
GETLNSYGIS | VIYRDGRRTFYGDSVK | GRAAGTFDC | not detected | 0 of 3 | 0 of 9
GFTLNSYGIS | MIYSDGRRTFYGDIVK | GRAAGTFDS | 4.28 | 1 of 3 | 3 of 9
GFTLNSYGIS | VIESDGQRTFYGDSVK | GRAAGAFDS | 5.16 | 1 of 3 | 2 of 9
QFTLNSYGIC | VIYSDGRRTFYGDSVK | GRAAGTFDG | not detected | 0 of 3 | 0 of 9

Continued, with the values leading:

mean, log10 nM | seen in | signal with controls | CDR-H1 | CDR-H2 | CDR-H3
not detected | 0 of 3 | 1 of 9 | GFTLNSFDIS | VIYSDGRRTFYGDSVK | GRAPGTFDS
not detected | 0 of 3 | 0 of 9 | GFFLNSYGGS | VIYSDGRVTFYGDSVK | GRAAGTFDS
3.58 | 1 of 3 | 1 of 9 | GFTLNSPGIS | VIYSDGRRIFYGDSQK | GRAAGTFDS
not detected | 0 of 3 | 0 of 9 | GFTLNSYGIS | VIYSDGRLTFYGDSVK | GMAGGTFDS
3.89 | 3 of 3 | 1 of 9 | GFTLNSYGIS | VIYSDGRRTFYWDSVK | GRAAGTFES
not detected | 0 of 3 | 2 of 9 | GFTLNSYGIS | HIYSDGRRTFYFDSLK | GRAAGTFDS
not detected | 0 of 3 | 0 of 9 | GFTLNSYGIS | VIYQDGRRNFYGDSVK | GRAAMTFDS
4.63 | 3 of 3 | 8 of 9 | GFTLNSYGIS | IISSDGRRTFRGDSVK | GRAAGTFDS
4.47 | 1 of 3 | 7 of 9 | GFTLNSYGIS | VIYIDGRRTFYGDSVK | GPCAGTFDS
not detected | 0 of 3 | 3 of 9 | GFTLNSQGIS | VIYSDGRRIFYPDSVK | GRAAGTFDS
3.94 | 2 of 3 | 1 of 9 | GFTLNSYGIT | VIYSDGRETFYGDSVK | GRAAGSFDS
3.38 | 3 of 3 | 6 of 9 | CFTLNSYGIS | VIYSDGRRTFYGDSVK | GRAAGTFQH
not detected | 0 of 3 | 0 of 9 | GFTLNSYGIS | VIYEDGRPTFYGDSVK | GRAAGTFDS
3.86 | 1 of 3 | 3 of 9 | PFTLNSYGIS | VIYSDGRRTFYGDSVK | CRHAGTFDS
0.01 | 3 of 3 | 3 of 9 | GFTLNSYGIS | VIYSDGRRTFYSDSVK | GNAAGTFDS
3.33 | 2 of 3 | 2 of 9 | GFTLNSYGES | VIYSDGRRTVYGDSVK | GAAAGTFDS
not detected | 0 of 3 | 1 of 9 | GFTLNSYVIS | VWYSDGRRTFYGDSVK | GRAAGTFQS
4.51 | 3 of 3 | 2 of 9 | GFTLNSHGIS | VIYSDGDRTFYGDSVK | GRAADTFDS
not detected | 0 of 3 | 0 of 9 | GFTLNSYGIS | VIYSDGRTTFIGDSVK | WRAAGTFDS
not detected | 0 of 3 | 0 of 9 | GFTCNSYGIS | GIYSDGRRTFYGDSVG | GRAAGTFDS
not detected | 0 of 3 | 0 of 9 | GFTLNSYGIS | VIYSDGRRTQYGDSVK | GLAAGTFDP
3.34 | 1 of 3 | 0 of 9 | GFTLNSFGIS | VIYSDGRRTFYGDSVK | MRAAGTFTS
not detected | 0 of 3 | 0 of 9 | GFTLNSCGIS | LIYSDGRRTFYGDSVK | GSAAGTFDS
3.47 | 1 of 3 | 5 of 9 | GFTLNSYGIS | VIYSDGRRTFYGDSVY | PYAAGTFDS
not detected | 0 of 3 | 0 of 9 | GFTLNSYGIS | VIYSDMRREFSGDSVK | GRAAGTFDS
not detected | 0 of 3 | 1 of 9 | GFTLNSYGIS | VIYSDGRRTLYGDSVD | GWAAGTFDS
4.02 | 2 of 3 | 7 of 9 | GFTLNSSTIS | VIYSDGRRTFYGDSVK | GRAAGTFDA

Picked from the list: the 6 lowest averages where every replicate gave a value.

CDR-H1,CDR-H2,CDR-H3,"mean, log10 nM",seen in,signal with controls
GFTLNSYGIS,VIYSDGRRTFYSDSVK,GNAAGTFDS,0.01,3 of 3,3 of 9
GFTLNSYGIS,VIYSDGWRTFYSDSVK,GRAAGTFES,0.63,3 of 3,1 of 9
CFTLNSYGIS,VIYSDGRRTFYGDSVK,GRAAGTFQH,3.38,3 of 3,6 of 9
GFTLNSYGIS,VIYSDGRRTFYWDSVK,GRAAGTFES,3.89,3 of 3,1 of 9
GFTLNSHGIS,VIYSDGDRTFYGDSVK,GRAADTFDS,4.51,3 of 3,2 of 9
GFTLNSYGIS,IISSDGRRTFRGDSVK,GRAAGTFDS,4.63,3 of 3,8 of 9